Target: T1, Sterol O-acyltransferase 1 (Rattus norvegicus, UniProt O70536)
T1 sequence (O70536 whole entry): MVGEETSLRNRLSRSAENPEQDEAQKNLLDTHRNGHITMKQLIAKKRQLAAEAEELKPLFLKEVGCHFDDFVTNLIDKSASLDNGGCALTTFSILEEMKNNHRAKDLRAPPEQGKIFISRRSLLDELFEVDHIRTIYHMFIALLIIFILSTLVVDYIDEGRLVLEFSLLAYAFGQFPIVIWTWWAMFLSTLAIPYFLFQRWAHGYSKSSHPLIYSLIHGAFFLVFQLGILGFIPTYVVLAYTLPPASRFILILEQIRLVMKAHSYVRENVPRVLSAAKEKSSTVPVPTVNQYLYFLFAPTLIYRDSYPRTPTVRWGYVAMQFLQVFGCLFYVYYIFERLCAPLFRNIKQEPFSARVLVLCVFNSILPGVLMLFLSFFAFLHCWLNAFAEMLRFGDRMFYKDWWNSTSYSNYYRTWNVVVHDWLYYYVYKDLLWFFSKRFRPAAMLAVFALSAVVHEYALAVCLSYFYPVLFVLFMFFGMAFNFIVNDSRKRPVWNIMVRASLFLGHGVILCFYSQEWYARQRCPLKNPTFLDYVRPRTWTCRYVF
Assay: In vitro Acyl coenzyme A:cholesterol acyltransferase inhibition in hepatic microsomes isolated from cholesterol-fed rats
Set-up: species or system Liver
How it was run: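 Hepatic microsomes from cholesterol-fed rats (LAI screen); ACAT inhibition reported as IC50.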

Compound	IC50 [µM]
CCCCCCCCCCCCOC(=O)C(C(=O)Nc1c(OC)cc(OC)cc1OC)c1ccccc1 (stereo not given)	0.013
CCCCC(C)(C)OC(=O)C(C(=O)Nc1c(C(C)C)cccc1C(C)C)c1ccccc1 (stereo not given)	0.011

Results, then the compound that gave them:

IC50 [µM]	Compound
0.037	CCCCCCCCCCCCCCCCOC(=O)C(C(=O)Nc1c(C(C)C)cccc1C(C)C)c1ccccc1 (stereo not given)
0.013	CCCCCCCCOC(=O)C(C(=O)Nc1c(C(C)C)cccc1C(C)C)c1ccccc1 (stereo not given)
0.022	CCCCCCCCCCCCC(C)OC(=O)C(C(=O)Nc1c(C(C)C)cccc1C(C)C)c1ccccc1 (stereo not given)

Source: ChEMBL document CHEMBL1131340, “alpha-Substituted malonester amides: tools to define the relationship between ACAT inhibition and adrenal toxicity” (J Med Chem, 1998)
